From US20240016718A1 (priority 2020, published 2024)

Key:
IL-1 alpha = IL-1 alpha ELISA on back skin tissue extracts; format: in vivo, Rhino mice (RHJ/LeJ); details: Rhino mice back skin, day 15; Dysport 0.1-1 U i.d.; Adapalene gel 0.1% topical daily
epidermis (back skin) = test: Epidermis thickness (HES histology); details: day 15; Dysport 0.1-1 U i.d.; Adapalene gel 0.1% topical daily
[1] = test system: sebaceous lipids in sebum (fatty acid, squalene, cholesterol, wax esters, cholesteryl ester); test: Lipidomics analysis of sebum (lipid extraction, GC/FID peak areas); format: in vivo, Rhino mice (RHJ/LeJ); details: Rhino mice sebum, day 15; Dysport i.d.; Adapalene gel 0.1% topical daily
utriculi = test: Utriculi surface (HES histology); format: in vivo, Rhino mice (RHJ/LeJ); details: day 15; Dysport 0.1-1 U i.d.; Adapalene gel 0.1% topical daily
fibroblasts = test: Fibroblast proliferation (Ki67 positive cells in dermis); format: in vivo, Rhino mice (RHJ/LeJ); details: day 15; Dysport 0.1-1 U i.d.; Adapalene gel 0.1% topical daily
[2] = test system: dermis (inflammatory infiltrate); test: Dermis inflammation (number of nuclei/1000 μm^2 on HES slices); details: day 15; Dysport i.d. (closely followed the dose); Adapalene gel 0.1% topical daily
sebaceous glands = test: Sebaceous glands surface (HES histology); format: in vivo, Rhino mice (RHJ/LeJ); details: day 15; Dysport 0.1-1 U i.d.; Adapalene gel 0.1% topical daily
Substance P = Substance P ELISA on back skin tissue extracts; format: in vivo, Rhino mice (RHJ/LeJ); details: Rhino mice, day 15; Dysport 0.1-1 U i.d.; Adapalene gel 0.1% topical daily, versus control
keratinocytes = test: Keratinocyte proliferation (Ki67 positive cells in epidermis); format: in vivo, Rhino mice (RHJ/LeJ); details: day 15; Dysport 0.1-1 U i.d.; Adapalene gel 0.1% topical daily

`COc1ccc(-c2ccc3cc(C(=O)O)ccc3c2)cc1C12CC3CC(CC(C3)C1)C2` [Adapalene] was tested, and the “Effect on IL-1 alpha levels” value (IL-1 alpha) was “significantly reduced”, the “Effect on thickness of epidermis” value (epidermis (back skin)) was “significantly increased” and the “Effect on lipid content / lipid species of sebum” value [1] was “did not change significantly”. The “Effect on utricles surface” value (utriculi) was “significantly decreased”, the “Effect on fibroblast proliferation” value (fibroblasts) was “significantly increased” and the “Effect on dermis inflammation” value [2] was “significantly increased”. For the same molecule, the “Effect on sebaceous glands surface” value (sebaceous glands) was “significantly increased”, the “Effect on Substance P level in back skin” value (Substance P) was “similar” and the “Effect on keratinocyte proliferation” value (keratinocytes) was “significantly increased”.
